# The list is not random: actives were taken first. Their share in the collection is about 1.6%.
# ARNT-TACC3 inh: disruptors of ARNT/TACC3 protein interaction, primary screen, biochemical, AlphaScreen, single concentration; actives 0.66% (n = 390,000); AID 623870, 2012; AlphaScreen His-ARNT PAS-B/GST-TACC3 binding, luminescence; TACC3 fragment carries E629A point mutation; inhibition, % at 9.99 µM;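 active means mean inhibition of replicates at least 50% and at least half of replicates each reaching 50%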;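 further: 0% = complete ARNT plus TACC3 wells and 100% = ARNT alone without TACC3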
# CAL PDZ FP-1: untagged CAL PDZ binding inhibitors, primary screen, biochemical, fluorescence polarization, HTS; AID 602252, 2012; actives 0.92% (n = 300,000); purified CAL PDZ, TMR-peptide fluorescence polarization, 1 h; inhibition, % at 24.9 µM;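 active means mean inhibition of at least 30% with at least half of replicates also reaching 30%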;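 further: 0% = DMSO neutral control and 100% = excess unlabeled competitor peptide PRC23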
# CAL PDZ FP-2: CAL PDZ peptide-binding inhibitors, primary screen, biochemical, fluorescence polarization, Cer-tagged CAL PDZ, HTS | Golgi-associated PDZ and coiled-coil motif-containing protein (Homo sapiens), Q9HD26 | actives 0.02% (n = 330,000) | purified CAL PDZ, TMR-peptide fluorescence polarization, 1 h | inhibition, % at 20 µM | AID 504414, 2011;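 active means highest replicate inhibition of at least 40%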;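 further: plate controls were DMSO neutral control wells for no effect and unlabeled competitor peptide control wells for full effect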
#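 Material: tagged CAL PDZ protein CerCALP, purified; buffer or medium: sodium phosphate/NaCl buffer pH 7.4 with TCEP, IgG, Thesit; also added: fluorescent TMR peptide probe; schedule: 1 h incubation at room temperature before polarization reading; technique: fluorescence polarization from S- and P-plane intensities, G-factor corrected; control set: unlabelled peptide and DMSO controls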
# Vif imaging: HIV Vif self-association inhibitors, primary screen, imaging, HEK293T, single point | HEK293T cells, Vif self-association by quenched fluorescence, 24 h | AID 602346, 2012 | actives 0.35% (n = 340,000) | inhibition, % at 7.49 µM; in the data active means inhibition above about 50%, passing the limit was not always enough
# PglD DTNB: C. jejuni PglD acetyltransferase inhibitors, primary screen, biochemical, DTNB colorimetric, single point | UDP-N-acetylbacillosamine N-acetyltransferase PglD (Campylobacter jejuni) | purified PglD enzyme, DTNB colorimetric CoA detection | inhibition, % at 12.5 µM | actives 0.098% (n = 360,000); in the data active means inhibition above about 16%, passing the limit was not always enough
# UUG fidelity: yeast start codon fidelity modulation | S. cerevisiae UUG-firefly luciferase reporter, luminescence/redox ratio | activity score, % at 18.7 µM | 0.13% of 350,000 active | AID 602363;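 active means replicate mean at a twofold rise or more, about +100% in these data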;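 further: firefly luciferase made from a UUG start codon reports start codon fidelity; reporter light over untreated wells divided by growth signal over untreated wells; some hits fall short of that in this replicate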
# ARNT Alpha ctr: AlphaScreen signal interference compounds, dose response, artefact control for ARNT-TACC3 interaction inhibitor project, biochemical, luminescence, cherry-pick | shares compounds with ARNT-TACC3 inh | actives 50% (n = 1,200) | AID 651705, 2012 | AC50, µM (top dose mostly 68 µM), inactives show at the top dose activity change, negative = signal decrease | His-ARNT PASB-GST AlphaScreen artifact counter-screen;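 active means every separate test run was called active for a drop in luminescence, with AC50 within twice the top valid dose, actives reach about 71 µM in these data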
# An asterisk follows results filed as active; · = no result given; [ ] = remark or other dose.
1	CN1CCc2c(sc3c2C(=O)NC(c2ccccn2)N3)C1 (stereo not drawn)
2	C[C@@H]1CN([C@@H](C)CO)C(=O)c2cc(NS(C)(=O)=O)ccc2O[C@@H](C)CCCCO[C@H]1CN(C)C(=O)CCCN(C)C
3	CCN(C(=O)COc1cccc2cccnc12)C1CCS(=O)(=O)C1 (stereo not drawn)
4	CCN(C(=O)COc1ccccc1C(=O)NCc1ccccc1)C1CCS(=O)(=O)C1 (stereo not drawn)
5	O=C(C[C@H]1C[C@@H]2c3cc(NC(=O)Nc4ccccc4F)ccc3O[C@@H]2[C@H](CO)O1)NCc1ccc2c(c1)OCO2
6	CCN(CC)CCCNc1nc2ccccc2c2[nH]c3ccc(OC)cc3c12

assay / compound	1	2	3	4	5	6
ARNT-TACC3 inh	active	-14.1	53.2*	-4.1	3.0	56.7*
CAL PDZ FP-1	-0.7	·	0.7	4.9	·	-3.2
CAL PDZ FP-2	-0.1	·	-2.7	1.1	·	12.8
Vif imaging	24.6	·	0.6	5.4	·	-24.4
PglD DTNB	-4.1	0.3	·	4.9	4.1	·
UUG fidelity	-23.7	16.0	·	-14.0	·	·
ARNT Alpha ctr	68.4µM*	·	-10.9%	·	·	-33.5%

7	CCCCNC(=O)CCC(=O)N1CCN(C(c2ccccc2)c2ccccc2)CC1
8	COC(=O)CNC(=O)CCC(=O)N1CCN(C(c2ccccc2)c2ccccc2)CC1
9	C[C@@H]1CN([C@H](C)CO)C(=O)c2cc(NC(=O)Nc3ccccc3)ccc2O[C@@H](C)CCCCO[C@H]1CN(C)S(=O)(=O)c1ccc(Cl)cc1
10	N/C(=N\NS(=O)(=O)c1cc(C(F)(F)F)cc(C(F)(F)F)c1)c1ccccn1
11	N/C(=N\S(=O)(=O)c1cc(C(F)(F)F)cc(C(F)(F)F)c1)c1ccncc1
12	O=C(Oc1c(Cl)cc(Cl)c2cccnc12)N1CCCCC1

assay / compound	7	8	9	10	11	12
ARNT-TACC3 inh	49.5*	0.4	8.7	56.8*	-8.0	13.9
CAL PDZ FP-1	-5.9	-3.3	·	-4.9	-4.9	1.5
CAL PDZ FP-2	-0.7	-0.3	·	-0.8	-0.3	-1.2
Vif imaging	4.4	1.1	·	3.5	7.0	-4.5
PglD DTNB	3.0	0.9	-8.2	-5.0	0.2	0.0
UUG fidelity	-2.4	2.8	-10.4	-28.1	-5.7	2.7
ARNT Alpha ctr	-7.6%	·	·	-5.3%	·	·

13	Oc1c(C(c2ccccc2Cl)N2CCCC2)ccc2cccnc12 (stereo not drawn)
14	CC(=O)NC(c1ccc(C(C)C)cc1)c1ccc2cccnc2c1O (stereo not drawn)
15	Oc1c(C(c2ccc(Cl)cc2)N2CCCC2)cc(Cl)c2cccnc12 (stereo not drawn)
16	CN1CCN(C(c2ccccn2)c2cc(Cl)c3cccnc3c2O)CC1 (stereo not drawn)
17	CCC(=O)NC(c1ccco1)c1cc(Cl)c2cccnc2c1O (stereo not drawn)
18	COC(=O)c1[nH]c2ccc(Cl)cc2c1NC(=O)c1ccccc1[N+](=O)[O-]

assay / compound	13	14	15	16	17	18
ARNT-TACC3 inh	74.3*	4.5	55.2*	51.7*	-2.4	-2.7
CAL PDZ FP-1	-6.3	-11.6	-2.0	13.8	7.6	-1.7
CAL PDZ FP-2	-3.0	-0.9	-0.3	-0.5	-0.1	-1.5
Vif imaging	2.1	0.2	16.8	2.2	3.0	·
PglD DTNB	·	-0.7	·	·	·	·
UUG fidelity	·	-12.6	·	·	·	·
ARNT Alpha ctr	8.37µM*	·	6.49µM*	21.3µM*	·	·

19	COC(=O)c1[nH]c2ccc(C)cc2c1NC(=O)c1ccccc1[N+](=O)[O-]
20	Cc1cc(C(=O)Nc2cccc3c2O[C@H](CN(C)S(=O)(=O)c2c(C)noc2C)[C@H](C)CN([C@@H](C)CO)C3=O)n(C)n1
21	C[C@@H]1CN([C@H](C)CO)C(=O)c2cc(NC(=O)CCN3CCOCC3)ccc2O[C@@H]1CN(C)Cc1ccc(-c2ccccc2)cc1
22	Cc1coc2c(C)c3oc(=O)c(CCC(=O)N[C@@H](C)C(=O)N[C@@H](Cc4ccccc4)C(=O)O)c(C)c3cc12
23	Cc1c(CCC(=O)O)c(=O)oc2c(C)c3occ(-c4ccc(Br)cc4)c3cc12
24	Cc1coc2c(C)c3oc(=O)c(CC(=O)N[C@@H](CC(C)C)C(=O)O)c(C)c3cc12

assay / compound	19	20	21	22	23	24
ARNT-TACC3 inh	54.3*	-1.2	0.0	74.3*	55.6*	-7.0
CAL PDZ FP-1	-0.1	·	·	1.1	-14.7	-3.6
CAL PDZ FP-2	0.6	·	·	-2.0	-8.3	-1.0
Vif imaging	3.4	·	·	-1.8	-0.7	0.4
PglD DTNB	·	4.7	-2.8	11.6	-1.5	6.4
UUG fidelity	·	-5.6	·	10.4	-11.2	-4.7
ARNT Alpha ctr	-6.2%	·	·	-35.6%	51.9µM*	·

25	C[C@@H]1CN([C@H](C)CO)C(=O)c2cc(C#Cc3ccccc3F)cnc2O[C@@H]1CN(C)C(=O)C1CCC1
26	COc1ccc(OC)c2nc3c(C(=O)NCCN(C)C)cccc3nc12
27	C/C=C/c1ccc([C@H]2[C@@H](CO)N(Cc3ccccn3)[C@H]2CNC(C)=O)cc1
28	C/C=C/c1ccc([C@@H]2[C@@H](CNC(=O)CC)N(Cc3ccccn3)[C@H]2CO)cc1
29	C/C=C/c1ccc([C@H]2[C@@H](CNC(=O)CC)N(Cc3ccccn3)[C@H]2CO)cc1
30	O=C(NC[C@@H]1[C@H](c2ccccc2)[C@H](CO)N1Cc1ccccn1)C1CC1

assay / compound	25	26	27	28	29	30
ARNT-TACC3 inh	-1.4	20.3*	29.9*	11.1	46.6*	45.9*
CAL PDZ FP-1	·	-1.5	·	·	·	·
CAL PDZ FP-2	·	-0.3	·	·	·	·
Vif imaging	·	-7.0	·	·	·	·
PglD DTNB	0.7	·	2.7	-1.6	-1.7	15.5
UUG fidelity	-9.8	·	-7.7	-17.4	-21.5	-21.5
ARNT Alpha ctr	·	-5.5%	-21.7%[38 µM]	·	-15.2%[42 µM]	-9.2%[38 µM]

31	CS(=O)(=O)Nc1ccc2c(c1)[C@@H]1C[C@@H](CC(=O)NCCN3CCCCC3)O[C@H](CO)[C@@H]1O2
32	CO[C@@H]1CN(C)C(=O)c2ccc(NC(C)=O)cc2OC[C@H](C)N(C(=O)c2ccncc2)C[C@H]1C
33	CCCNC(=O)N(C)C[C@@H]1Oc2ncc(C#CC3CC3)cc2C(=O)N([C@@H](C)CO)C[C@@H]1C
34	CCCC(=O)Nc1ccc2c(c1)OC[C@H](C)N(C(=O)c1ccncc1)C[C@@H](C)[C@H](OC)CN(C)C2=O
35	O=S(=O)(NC1CCN(Cc2ccc(OCCO)cc2)CC1)c1cc(Cl)ccc1Cl
36	O=S(=O)(c1cccc2cccnc12)N1CCN(Cc2ccc(OCCO)cc2)CC1
37	O=S(=O)(NC1CCN(Cc2ccc(OCCO)cc2)CC1)c1cccc2cccnc12
38	O=C(C1CCN(S(=O)(=O)c2cccc3cccnc23)CC1)N1CCN(Cc2ccccc2)CC1

assay / compound	31	32	33	34	35	36	37	38
ARNT-TACC3 inh	11.6	-6.4	-5.6	-0.5	7.6	64.2*	112.9*	5.8
CAL PDZ FP-1	·	·	·	·	·	·	·	-3.1
CAL PDZ FP-2	·	·	·	·	·	·	·	-2.0
Vif imaging	·	·	·	·	·	·	·	2.2
PglD DTNB	6.8	1.1	-1.0	3.3	-4.2	1.2	2.2	-6.6
UUG fidelity	-26.0	-3.2	-5.7	6.1	2.6	-12.8	-9.1	-11.0
ARNT Alpha ctr	·	·	·	·	·	51.4µM*	24.8µM*	·

# Compound activity: PubChem, Broad Institute
